Measured affinities in a library of Ab-14 heavy chain variants

Target peptide (SARS-CoV-2 spike, HR2 region): PDVDLGDISGINAS

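Phage display of a naive human antibody library on the peptide gave the parent. Variants in AAYL49 differ from the parent at up to three CDR positions; double and triple changes were sampled at random. The assay is AlphaSeq: two haploid yeast populations carry antibody and antigen on their surface. Binding brings cells together so that they mate, and sequencing counts the barcode pairs among the diploids. A regression on co-assayed BCL2-family reference pairs converts the normalised counts of each replicate to an apparent Kd. Mating was done three times.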

Each scFv is VH, a (GGGGS)3 linker, VL, as in the parent Ab-14, and differs from it in the CDRs of the heavy chain only.
VH: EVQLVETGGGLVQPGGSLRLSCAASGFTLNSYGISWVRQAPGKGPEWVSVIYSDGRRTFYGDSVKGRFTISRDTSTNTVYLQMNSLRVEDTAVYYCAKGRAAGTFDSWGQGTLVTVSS
VL: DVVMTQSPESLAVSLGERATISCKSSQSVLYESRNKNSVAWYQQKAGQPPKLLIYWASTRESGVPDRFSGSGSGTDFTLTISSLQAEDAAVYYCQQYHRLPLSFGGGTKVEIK

Each variant's VH is given in full.
Scale: log10 of Kd in nM, estimated from mating counts; low values are strong binders.
"ND" means that the variant was in the library but no mating with the target was seen in that replicate; the authors take this as a sign of poor binding, and no number exists.
As a blank, each scFv also met three strains without target: over library AAYL49, 15% of these pairings were detected, typically at 4.06 and seldom below 2.83. The control count says in how many pairings with the empty strains this scFv gave a signal, with their mean in brackets.

{"VH": "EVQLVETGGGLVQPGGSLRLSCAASGFTLNSYGISWVRQAPGKGPEWVSPIYHDGRRTFYGDSVKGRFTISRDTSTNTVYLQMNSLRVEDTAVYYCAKGRAAGTFDSWGQGTLVTVSS", "log10 Kd (nM) by replicate": "ND / ND / ND", "control signals": "0/9"}
{"VH": "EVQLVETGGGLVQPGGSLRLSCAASGFTLNSYGISWVRQAPGKGPEWVSVVYSDGRRHFYGDSVKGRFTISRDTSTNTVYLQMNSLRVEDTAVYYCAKGRAAGTFDSWGQGTLVTVSS", "log10 Kd (nM) by replicate": "ND / ND / ND", "control signals": "1/9 (4.14)"}
{"VH": "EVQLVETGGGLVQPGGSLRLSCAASGFTLGSYEISWVRQAPGKGPEWVSVIYSDGRRTEYGDSVKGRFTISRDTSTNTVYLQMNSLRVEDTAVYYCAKGRAAGTFDSWGQGTLVTVSS", "log10 Kd (nM) by replicate": "ND / 4.28 / ND", "control signals": "0/9"}
{"VH": "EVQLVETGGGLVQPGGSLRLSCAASFFTLNSYGIPWVRQAPGKGPEWVSVIYSDGRRTFYGDSFKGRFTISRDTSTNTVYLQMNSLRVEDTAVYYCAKGRAAGTFDSWGQGTLVTVSS", "log10 Kd (nM) by replicate": "ND / 3.75 / ND", "control signals": "0/9"}
{"VH": "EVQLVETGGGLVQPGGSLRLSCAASGFTLNSYGISWVRQAPGKGPEWVSVIYSDGRRTFYGDSVKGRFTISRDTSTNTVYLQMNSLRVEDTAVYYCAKGRKAGTFDSWGQGTLVTVSS", "log10 Kd (nM) by replicate": "2.21 / 2.10 / 2.33", "control signals": "1/9 (3.28)"}
{"VH": "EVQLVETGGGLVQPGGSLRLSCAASGFTLNAYGFSWVRQAPGKGPEWVSVIYSDGRRTFYGDSVKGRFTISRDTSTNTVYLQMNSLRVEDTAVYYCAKGRAAGTFDSWGQGTLVTVSS", "log10 Kd (nM) by replicate": "2.48 / ND / ND", "control signals": "0/9"}
{"VH": "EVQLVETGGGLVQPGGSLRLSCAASGFTLCSYGISWVRQAPGKGPEWVSDIYSDGRRTFYGDSVKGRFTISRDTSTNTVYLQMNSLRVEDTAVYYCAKGRADGTFDSWGQGTLVTVSS", "log10 Kd (nM) by replicate": "5.86 / 4.45 / 4.85", "control signals": "6/9 (5.09)"}
{"VH": "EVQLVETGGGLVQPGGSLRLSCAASGFTLGSYGISWVRQAPGKGPEWVSVIYSDGRRTFYGDSMKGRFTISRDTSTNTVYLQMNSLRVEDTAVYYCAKGRAAGTFDSWGQGTLVTVSS", "log10 Kd (nM) by replicate": "ND / 2.75 / 2.97", "control signals": "0/9"}
{"VH": "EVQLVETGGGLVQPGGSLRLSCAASGFTLNSYGIPWVRQAPGKGPEWVSVVYSDGRDTFYGDSVKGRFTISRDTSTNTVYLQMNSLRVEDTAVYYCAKGRAAGTFDSWGQGTLVTVSS", "log10 Kd (nM) by replicate": "ND / ND / ND", "control signals": "3/9 (4.35)"}
{"VH": "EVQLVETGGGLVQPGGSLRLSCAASGFTLNSYGISWVRQAPGKGPEWVSVIPWDGRRTFYEDSVKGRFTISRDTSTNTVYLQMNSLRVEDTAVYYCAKGRAAGTFDSWGQGTLVTVSS", "log10 Kd (nM) by replicate": "ND / ND / ND", "control signals": "0/9"}
{"VH": "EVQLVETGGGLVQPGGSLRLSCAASGFTLNSYGISWVRQAPGKGPEWVSVIFSDGRRTFYGDMVKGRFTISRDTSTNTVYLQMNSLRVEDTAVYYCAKGRAAGTWDSWGQGTLVTVSS", "log10 Kd (nM) by replicate": "3.51 / 3.04 / 2.92", "control signals": "0/9"}
{"VH": "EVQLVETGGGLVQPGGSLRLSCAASGFTLNSYGISWVRQAPGKGPEWVSVIYSDGRRTFYGDSVHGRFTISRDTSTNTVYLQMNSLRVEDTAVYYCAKGRAAGTFVIWGQGTLVTVSS", "log10 Kd (nM) by replicate": "2.86 / 1.74 / 2.11", "control signals": "0/9"}
{"VH": "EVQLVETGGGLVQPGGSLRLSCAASGFTLNSYGISWVRQAPGKGPEWVSVIYSDGRRFFYGDSVKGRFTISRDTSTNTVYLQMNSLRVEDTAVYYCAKGRAAGTFDPWGQGTLVTVSS", "log10 Kd (nM) by replicate": "2.39 / 2.06 / 2.55", "control signals": "2/9 (5.16)"}
{"VH": "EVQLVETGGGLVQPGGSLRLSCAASGFTLNSVGISWVRQAPGKGPEWVSVIQSDGRRTFYGDSVKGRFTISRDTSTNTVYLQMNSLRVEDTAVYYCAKGRATGTFDSWGQGTLVTVSS", "log10 Kd (nM) by replicate": "ND / ND / ND", "control signals": "0/9"}
{"VH": "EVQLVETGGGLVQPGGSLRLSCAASGFTLNSYGISWVRQAPGKGPEWVSVIYSVGRRTFCGDIVKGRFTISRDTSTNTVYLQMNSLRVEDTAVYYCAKGRAAGTFDSWGQGTLVTVSS", "log10 Kd (nM) by replicate": "ND / ND / ND", "control signals": "2/9 (4.95)"}
{"VH": "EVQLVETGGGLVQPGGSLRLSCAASTFTLNSYGISWVRQAPGKGPEWVSVIYSDGRRTFYGDSVKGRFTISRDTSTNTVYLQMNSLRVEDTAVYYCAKGRAWGTYDSWGQGTLVTVSS", "log10 Kd (nM) by replicate": "3.50 / ND / 4.24", "control signals": "1/9 (4.48)"}
{"VH": "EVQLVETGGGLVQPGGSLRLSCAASGFTLSSYGISWVRQAPGKGPEWVSVIYSDGRRTFYGRSVKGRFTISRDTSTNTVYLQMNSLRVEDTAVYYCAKGRAAGTFPSWGQGTLVTVSS", "log10 Kd (nM) by replicate": "5.33 / ND / ND", "control signals": "0/9"}
{"VH": "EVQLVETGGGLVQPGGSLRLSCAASGFTLNSYGISWVRQAPGKGPEWVSVIYSDGRRTFDGDSVKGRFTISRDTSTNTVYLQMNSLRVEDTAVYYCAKGGAAGGFDSWGQGTLVTVSS", "log10 Kd (nM) by replicate": "ND / ND / 3.83", "control signals": "2/9 (4.17)"}

Top 2 of the variants detected in all replicates, tightest first:

{"VH": "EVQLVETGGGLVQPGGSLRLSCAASGFTLNSYGISWVRQAPGKGPEWVSVIYSDGRRTFYGDSVKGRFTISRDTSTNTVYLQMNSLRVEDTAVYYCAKGRKAGTFDSWGQGTLVTVSS", "log10 Kd (nM) by replicate": "2.21 / 2.10 / 2.33", "control signals": "1/9 (3.28)"}
{"VH": "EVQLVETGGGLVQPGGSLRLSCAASGFTLNSYGISWVRQAPGKGPEWVSVIYSDGRRTFYGDSVHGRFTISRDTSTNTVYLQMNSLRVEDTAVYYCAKGRAAGTFVIWGQGTLVTVSS", "log10 Kd (nM) by replicate": "2.86 / 1.74 / 2.11", "control signals": "0/9"}

From the AlphaSeq antibody data of Engelhart et al. 2022 (doi:10.1038/s41597-022-01779-4), copy in the FLAb collection.